This assay concerns elevated heart rate. Kind of assay: Additional in vivo dog experiments: dermal clearance enhancer pretreatment then arbutamine TDI (Example C). Set-up: species or system labrador dogs. Conditions: heart rate decline, Table VII, single dog run; listed as 1% Tolazoline. On the procedure: Additional experiments were performed to study the effect of certain compositions on the offset time and dermal clearance in dogs.
In these experiments, the formulation to be tested was applied either topically or by transdermal iontophoresis (TDI) as described below.
Six labrador dogs (20 to 30 kg) were trained to lie quietly on a table. Before each experiment, three ECG electrodes (one lead) were applied on shaved areas of the back (near the front legs) to obtain the heart rate. The outer hind leg area (either right or left) was shaved prior to each experiment, with care taken not to cut or visibly damage the skin. […]
Each vasodilator that was delivered by TDI used a 1.8 cm^2 electrode (Graphic Controls, Buffalo, N.Y.) containing the vasodilator in a gel at the concentrations listed in experimental methods section. […] During this time the heart rate was continuously recorded (at 5 second intervals) with the ESA Research System. […]
Each topically applied vasodilator was applied to the skin in a volume of approximately 0.25 ml. The agent was allowed to absorb into the skin, during which time the heart rate was continuously recorded for 10 minutes using the ESA Research System.
To test if heat alone would produce sufficient vasodilation, a 60° C. hot pack was applied to the skin 10 minutes prior to drug delivery, during which time the heat rate was continuously recorded by the ESA System. […]

Where “and” joins values, the source holds several entries; their conditions need not be identical. Equal entries are not always repeated.

As for `c1ccc(CC2=NCCN2)cc1` [Tolazoline], the HALF-LIFE is 14.06 min and 32.06 min and 17.47 min and 19.23 min and 21.36 min and 10.47 min.
